Patent US20090196917A1, “Liposomal Formulations of Hydrophobic Lactone Drugs in the Presence of Metal Ions” (University of Kentucky Research Foundation, priority 2008, published 2009)

Assay: Active loading of DB-67 into Ca(OAc)2 DSPC/m-PEG DSPE vesicles (Example 15)
Conditions: 0.25 M Ca(OAc)2 vesicles, 60 mg DSPC/mL, 40° C., ~50 h

## CC[C@@]1(O)C(=O)OCc2c1cc1n(c2=O)Cc2c-1nc1ccc(O)cc1c2[Si](C)(C)C(C)(C)C [DB-67, silatecan 7-t-butyldimethylsilyl-10-hydroxycamptothecin]
  suspension concentration of DB-67 at the end of the loading: ~9.2 mM
